# Data from article PMC4323687 (Neurobiology of disease, 2014).
# How the values were obtained:
# [1] = system: mThy1-hAPP751 APPtg mouse model of AD; assay: Aβ immunostaining of plaques in frontal cortex and hippocampus of APPtg mice; assay type: in vivo; details: same treatments as E16
# [2] = system: mThy1-hAPP751 APPtg mouse model of AD; assay: Electron microscopy of neuropil and amyloid in APPtg mouse brain; assay type: in vivo; details: same treatments as E16
# [3] = system: mThy1-hAPP751 APPtg mouse model of AD; assay: Immunohistochemistry of synaptophysin, MAP2, NeuN and GFAP in APPtg mouse brain; assay type: in vivo
# primary cortical neurons = details: 0.5, 5, 10, 20 and 50 μM, 24 hours, MTT
structure (smiles),measurement,setting,value
Oc1c(Cl)cc(Cl)c(Cl)c1Cc1c(O)c(Cl)cc(Cl)c1Cl [hexachlorophene],Aβ42-immunoreactivity in the hippocampus (% area of neuropil) vs vehicle APPtg,[1],high Aβ42-immunoreactivity
same,amyloid fibrils in neuropil by electron microscopy,[2],abundant fibrils and plaques
same,status of axons/neurites in neuropil by electron microscopy,[2],abnormal dystrophic neurites were found
same,synapse loss (SYN-immunoreactivity) in the frontal cortex,[3]; vs APPtg mice treated with PBS,significantly reversed
same,synapse loss (SYN-immunoreactivity) in the hippocampus,[3]; vs APPtg mice treated with PBS,significantly reversed
same,MAP2 immunoreactivity (neuronal damage) in the frontal cortex,[3]; vs vehicle-treated APPtg mice,reversion of the damage
same,NeuN immunoreactivity in the frontal cortex,[3]; vs vehicle-treated APPtg mice,increase
same,effect of compound alone on cellular viability of neurons,primary cortical neurons,significant reduction of the cellular viability only at high concentrations
